# Measured values reported in patent publication US12590091B2, “1H-pyrrolo[3,2-C]pyridine and 1H-pyrrolo[2,3-C]pyridine derivatives as TLR9 inhibitors for the treatment of fibrosis” (BRISTOL-MYERS SQUIBB COMPANY, priority 2020, dated 2026).
# Sequences of proteins named here, by UniProt entry; tags and fusion partners are left off. Residues count along the entry.
# UniProt Q9NR96, 26-1032 limits assumed: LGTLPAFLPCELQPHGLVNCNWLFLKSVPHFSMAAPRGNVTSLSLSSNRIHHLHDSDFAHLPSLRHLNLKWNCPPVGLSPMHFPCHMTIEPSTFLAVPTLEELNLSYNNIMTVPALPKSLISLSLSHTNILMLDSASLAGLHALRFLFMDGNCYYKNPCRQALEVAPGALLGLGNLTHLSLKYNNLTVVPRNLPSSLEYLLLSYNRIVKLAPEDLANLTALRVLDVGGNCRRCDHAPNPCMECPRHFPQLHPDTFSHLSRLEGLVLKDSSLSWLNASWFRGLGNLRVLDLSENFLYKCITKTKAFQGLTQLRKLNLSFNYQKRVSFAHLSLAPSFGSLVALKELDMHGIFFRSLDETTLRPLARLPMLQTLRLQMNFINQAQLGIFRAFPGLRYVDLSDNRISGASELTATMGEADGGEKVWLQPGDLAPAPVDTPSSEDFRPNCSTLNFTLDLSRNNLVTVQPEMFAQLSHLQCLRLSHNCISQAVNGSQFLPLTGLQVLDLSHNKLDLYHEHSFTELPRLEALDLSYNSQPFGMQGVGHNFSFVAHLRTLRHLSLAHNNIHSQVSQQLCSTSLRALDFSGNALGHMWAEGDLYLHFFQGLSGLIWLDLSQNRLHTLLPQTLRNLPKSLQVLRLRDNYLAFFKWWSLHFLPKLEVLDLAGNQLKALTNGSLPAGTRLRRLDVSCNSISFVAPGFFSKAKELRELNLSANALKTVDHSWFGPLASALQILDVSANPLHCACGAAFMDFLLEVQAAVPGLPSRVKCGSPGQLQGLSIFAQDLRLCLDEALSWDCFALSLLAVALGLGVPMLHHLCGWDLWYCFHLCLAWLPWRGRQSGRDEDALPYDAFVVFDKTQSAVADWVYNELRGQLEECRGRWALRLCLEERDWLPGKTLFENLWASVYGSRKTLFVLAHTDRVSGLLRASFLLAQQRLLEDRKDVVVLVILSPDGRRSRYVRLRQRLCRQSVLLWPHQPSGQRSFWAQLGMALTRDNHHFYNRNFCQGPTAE
# Target: human TLR9 (Homo sapiens, UniProt Q9NR96)
# Assay: TLR9 inhibition reporter assay (HEK-Blue cells, SEAP reporter)
# Format: cell-based
# Settings: read-out: TLR9 IC50, HEK-Blue cells overexpressing human TLR9, stimulated with ODN2006 5 nM, 22 hour incubation
smiles,measurement,value
Cc1nc(-c2cc(F)c(N3CCN(CC(C)C)CC3)cc2F)cc2c1cc(-c1ccc(S(C)(=O)=O)cc1)n2C,IC50,7.28 µM
